Assay outcomes as filed in PubChem BioAssay.
Rows were chosen to be rich in hits. Some 0.43% of all compounds tested hit in one or more screens of this group.
HCMV UL50-53 inh: cytomegalovirus nuclear egress complex inhibition. HTRF UL50-UL53 interaction, normalized percent inhibition. inhibition, % (concentration not given with the values). actives 0.15% (n = 190,000). AID 1918969; in the data active means inhibition above about 27%, passing the limit was not always enough
GIV-Gai inh: blocks GIV peptide binding to rat Galpha-i3. P08753. Galpha-i3/FITC-GIV peptide fluorescence polarization, 90 min; stronger effect = lower value; scaled: aluminum fluoride 0%, vehicle 100%. percent of control (FP), % (concentration not given with the values). hit rate 0.42% among 210,000. AID 1224905;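 active means replicate mean at 85% of control or lower, very high polarization wells dropped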;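 further: wells of about 15 µL received 100 nL stock; the first replicate is given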
* marks the source's active call; other numbers are inactive results; . = not tested or not shown; ! = not confirmed by another sample.

1) CCOC(=O)c1cc2c(cc1C(=O)OCC)[n+](CC)c(/C=C/C=C1N(CC)c3cc(Cl)c(Cl)cc3N1CC)n2CC
  HCMV UL50-53 inh = .	GIV-Gai inh = 121.5
2) CC(=O)OCCCN1/C(=C\C=C\c2n(CCCOC(C)=O)c3cc(Cl)c(Cl)cc3[n+]2C)N(C)c2cc(Cl)c(Cl)cc21
  HCMV UL50-53 inh = .	GIV-Gai inh = 59.7*
3) CN(C)/C=C1/C=C(c2ccccc2)SC1=S
  HCMV UL50-53 inh = .	GIV-Gai inh = 97.7
4) CCN(CC)c1ccc2cc(-c3nc(-c4cccs4)no3)c(=O)oc2c1
  HCMV UL50-53 inh = .	GIV-Gai inh = -20.9*
5) CCN(CC)c1ccc2cc(-c3nnc(-c4cccc(Cl)c4)o3)c(=O)oc2c1
  HCMV UL50-53 inh = -44.7	GIV-Gai inh = 7.6*
6) CCN(CC)c1ccc2cc(-c3csnn3)c(=O)oc2c1
  HCMV UL50-53 inh = -32.2	GIV-Gai inh = 162.3
7) CCN(CC)c1ccc2cc(-c3nc(-c4ccccc4)cs3)c(=O)oc2c1
  HCMV UL50-53 inh = .	GIV-Gai inh = -31.6*!
8) COc1cc(-c2noc(-c3cc4cccc(C)c4oc3=O)n2)cc(OC)c1OC
  HCMV UL50-53 inh = .	GIV-Gai inh = 101.3
9) CCN(CC)c1ccc2cc(-c3csc(C)n3)c(=O)oc2c1
  HCMV UL50-53 inh = -42.2	GIV-Gai inh = .
10) CCN(CC)c1ccc2cc(-c3nc(-c4ccccc4F)no3)c(=O)oc2c1
  HCMV UL50-53 inh = .	GIV-Gai inh = 116.6
11) CCN(CC)c1ccc2cc(-c3nc(-c4cc(OC)c(OC)c(OC)c4)no3)c(=O)oc2c1
  HCMV UL50-53 inh = .	GIV-Gai inh = -20.9*
12) COc1ccc(NS(=O)(=O)c2ccc3oc(=O)c4ncn(C)c4c3c2)cc1
  HCMV UL50-53 inh = -21.2	GIV-Gai inh = 99.9
13) COc1cc(OC)c(N2C(=O)CN(S(C)(=O)=O)CC2(C)C(=O)NC2CCCC2)cc1Cl (configuration not stated)
  HCMV UL50-53 inh = 11.8	GIV-Gai inh = 104.2
14) CC(C)NCC(O)COc1ccccc1 (configuration not stated)
  HCMV UL50-53 inh = 24.9	GIV-Gai inh = 104.4
15) CC(COc1ccccc1)N(CCCl)Cc1ccccc1 (configuration not stated)
  HCMV UL50-53 inh = 88.8*!	GIV-Gai inh = 99.2

16) S=c1nc(-c2cccs2)[nH]c2ccccc12
  HCMV UL50-53 inh = -25.4	GIV-Gai inh = .
17) O/N=C1\CCCc2c1nc(-c1ccccc1Cl)n2O
  HCMV UL50-53 inh = -3.1	GIV-Gai inh = .
18) O/N=C1/CCCc2nn(-c3ccccc3)nc21
  HCMV UL50-53 inh = 55.7*	GIV-Gai inh = .
19) Fc1cccc(-c2nc3ncccc3o2)c1
  HCMV UL50-53 inh = -12.2	GIV-Gai inh = 102.0
20) CCCN1CC(CSC)C[C@@H]2c3cccc4[nH]cc(c34)C[C@H]21 (some centres not stated)
  HCMV UL50-53 inh = 50.4*	GIV-Gai inh = .
21) Cc1cc(C)c(NC(=O)CN(C)CC(N)=S)c(C)c1
  HCMV UL50-53 inh = -31.3	GIV-Gai inh = .
22) Cc1ncc2c(n1)CCN(S(=O)(=O)c1cccc3nsnc13)C2
  HCMV UL50-53 inh = .	GIV-Gai inh = 96.8
23) Cn1c(=O)cc2c3c(c(Br)ccc31)C(=O)c1ccccc1-2
  HCMV UL50-53 inh = .	GIV-Gai inh = 110.8
24) Cn1c(=O)c(O)c2c3c(c(Br)ccc31)C(=O)c1ccccc1-2
  HCMV UL50-53 inh = .	GIV-Gai inh = -29.3*
25) CC(Sc1nnc(C2CC2)n1C1CC1)C(=O)c1c[nH]c2ccccc12 (configuration not stated)
  HCMV UL50-53 inh = -12.3	GIV-Gai inh = .
26) Cc1cccc(CN2C(=O)C3CCCC3=Nc3cc(C)c(C)cc32)c1 (configuration not stated)
  HCMV UL50-53 inh = -0.4	GIV-Gai inh = 106.4
27) COC(=O)CC1SC(=O)NC1=S (configuration not stated)
  HCMV UL50-53 inh = -72.5	GIV-Gai inh = -68.4*
28) COC(=O)CC1SC(=O)NC1=Nc1ccc(C)cc1 (configuration not stated)
  HCMV UL50-53 inh = 0.0	GIV-Gai inh = .
29) Cc1cc(C)c(C#N)c(N2CCCC2)n1
  HCMV UL50-53 inh = 0.5	GIV-Gai inh = 109.0
30) N#Cc1c(N2CCCC2)nc(N)c2c(N)nc(N3CCCC3)cc12
  HCMV UL50-53 inh = 96.9*	GIV-Gai inh = .

31) CCOc1cc(C=C2C(=O)NC(=O)NC2=O)cc(Br)c1OCCOc1ccccc1
  HCMV UL50-53 inh = -14.9	GIV-Gai inh = 108.1
32) COc1ccccc1OCCOc1c(Br)cc(C=C2C(=O)N(C)C(=O)N(C)C2=O)cc1OC
  HCMV UL50-53 inh = 77.3*	GIV-Gai inh = 106.0
33) COc1cc(C=C2C(=O)N(C)C(=O)N(C)C2=O)cc(Br)c1OCCOc1ccccc1
  HCMV UL50-53 inh = -6.6	GIV-Gai inh = 106.4
34) COc1cc(C=C2C(=O)NC(=S)NC2=O)cc(Cl)c1OCCOc1cccc(C)c1
  HCMV UL50-53 inh = 6.6	GIV-Gai inh = 111.2
35) COc1cc(C=C2C(=O)NC(=O)NC2=O)cc(Br)c1OCCOc1ccccc1
  HCMV UL50-53 inh = 82.2*	GIV-Gai inh = 105.0
36) COc1cc(C=C2C(=O)NC(=O)NC2=O)cc(Cl)c1OS(=O)(=O)c1ccccc1
  HCMV UL50-53 inh = 60.3*	GIV-Gai inh = 103.9
37) CCCCN=C1SCC(c2cc3ccccc3o2)=NN1C
  HCMV UL50-53 inh = -46.3	GIV-Gai inh = .
38) Cc1ccc(CNC(=O)CCCn2c(=O)c3sccc3n(CC(=O)N3CCCCC3C)c2=O)cc1 (configuration not stated)
  HCMV UL50-53 inh = 2.8	GIV-Gai inh = 107.6
39) Cc1cc(-c2nc(C(=O)/C=C/N(C)C)cs2)no1
  HCMV UL50-53 inh = -73.0	GIV-Gai inh = 101.3
40) O=S(=O)(c1ccc2c(c1)OCCO2)N1CCCCC1c1cccnc1 (configuration not stated)
  HCMV UL50-53 inh = -17.4	GIV-Gai inh = -70.7*
41) O=S(=O)(c1ccc2nsnc2c1)N1CCCCC1c1cccnc1 (configuration not stated)
  HCMV UL50-53 inh = -57.5	GIV-Gai inh = 102.4
42) CC(C)CNC(=O)C1CCN(c2ccc(-c3ccccc3)nn2)CC1
  HCMV UL50-53 inh = -39.6	GIV-Gai inh = 102.8
43) CCCCCCCNC(=O)C1CCN(c2ccc(-c3ccccc3)nn2)CC1
  HCMV UL50-53 inh = 31.0*	GIV-Gai inh = 98.3
44) OC(c1ccc(Cl)cc1)C(O)c1nc2ccccc2[nH]1 (configuration not stated)
  HCMV UL50-53 inh = -20.3	GIV-Gai inh = .
45) OCC(O)C(O)C(O)C(O)c1nc2ccccc2[nH]1 (configuration not stated)
  HCMV UL50-53 inh = 37.2*	GIV-Gai inh = .

Five entries from above, arranged by length of the SMILES, rising.
19) Fc1cccc(-c2nc3ncccc3o2)c1
  HCMV UL50-53 inh = -12.2	GIV-Gai inh = 102.0
17) O/N=C1\CCCc2c1nc(-c1ccccc1Cl)n2O
  HCMV UL50-53 inh = -3.1	GIV-Gai inh = .
32) COc1ccccc1OCCOc1c(Br)cc(C=C2C(=O)N(C)C(=O)N(C)C2=O)cc1OC
  HCMV UL50-53 inh = 77.3*	GIV-Gai inh = 106.0
13) COc1cc(OC)c(N2C(=O)CN(S(C)(=O)=O)CC2(C)C(=O)NC2CCCC2)cc1Cl (configuration not stated)
  HCMV UL50-53 inh = 11.8	GIV-Gai inh = 104.2
2) CC(=O)OCCCN1/C(=C\C=C\c2n(CCCOC(C)=O)c3cc(Cl)c(Cl)cc3[n+]2C)N(C)c2cc(Cl)c(Cl)cc21
  HCMV UL50-53 inh = .	GIV-Gai inh = 59.7*

Further records:
46) COc1ccc(-n2nc(C(=O)N3CCN(c4ccccc4F)CC3)c(=O)n(C)c2=O)cc1
  HCMV UL50-53 inh = -7.1	GIV-Gai inh = 100.8
47) O=C(O)C(Cc1ccc(O)cc1)N=Cc1cccc2ccccc12 (configuration not stated)
  HCMV UL50-53 inh = 94.7*	GIV-Gai inh = .
48) O=C(O)C(Cc1ccccc1)N=Cc1c(O)c2ccccc2oc1=O (configuration not stated)
  HCMV UL50-53 inh = -17.7	GIV-Gai inh = 99.4
49) Cc1ccc(-c2noc(-c3ccc(=O)n(CC(=O)Nc4ccccc4Br)c3)n2)cc1
  HCMV UL50-53 inh = .	GIV-Gai inh = 106.0
50) CN1c2cc(Cl)ccc2-c2nc(SCC(=O)NC3CCCC3)ncc2S1(=O)=O
  HCMV UL50-53 inh = 75.1*	GIV-Gai inh = 103.4
51) CN1c2cc(Cl)ccc2-c2nc(SCC(N)=O)ncc2S1(=O)=O
  HCMV UL50-53 inh = 1.9	GIV-Gai inh = 105.3
52) CCn1nc(C)cc1-c1nnc(-c2ccc(C(F)(F)F)cc2)o1
  HCMV UL50-53 inh = 5.2	GIV-Gai inh = 103.2
53) O=C(CSc1ccc2c3c(cccc13)C(=O)c1ccccc1-2)Nc1ccccc1
  HCMV UL50-53 inh = .	GIV-Gai inh = 99.2
54) COCCCNC(=O)CSc1ccc2c3c(cccc13)C(=O)c1ccccc1-2
  HCMV UL50-53 inh = .	GIV-Gai inh = -73.3*
55) COC(=O)c1ccc(-n2c(C)cc3ccccc32)s1
  HCMV UL50-53 inh = -7.3	GIV-Gai inh = 105.7
56) Cc1cc2ccccc2n1-c1ccc(C(=O)NC2CCCC2)s1
  HCMV UL50-53 inh = 56.4*	GIV-Gai inh = 107.6
57) COc1cccc(NC(=O)CSc2nc3c(sc4ncccc43)c(=O)n2Cc2ccc(C)cc2)c1
  HCMV UL50-53 inh = 78.8*	GIV-Gai inh = 100.5
58) COc1ccc(C)cc1NC(=O)CSc1nc2c(sc3ncccc32)c(=O)n1Cc1ccc(F)cc1
  HCMV UL50-53 inh = 54.6*	GIV-Gai inh = 101.8
59) Cc1ccc(NC(=O)CSc2nc3c(oc4ccccc43)c(=O)n2Cc2ccc(F)cc2)c(C)c1
  HCMV UL50-53 inh = .	GIV-Gai inh = 108.8
60) CCN(CC)CCn1c(SCC(=O)Nc2cccc(OC)c2)nc2c(sc3ccccc32)c1=O
  HCMV UL50-53 inh = .	GIV-Gai inh = 103.3

61) COc1cccc(NC(=O)Cc2ccc3nc(NC(C)=O)sc3c2)c1
  HCMV UL50-53 inh = -16.6	GIV-Gai inh = 102.9
62) O=C(O)CN1C(=O)Cc2ccccc2C1=O
  HCMV UL50-53 inh = 103.0*	GIV-Gai inh = .
63) COC(=O)CN1C(=O)Cc2ccccc2C1=O
  HCMV UL50-53 inh = -8.7	GIV-Gai inh = 98.4
64) CC(Oc1ccc(/C=C2\C(=O)NC(=O)N(c3ccc4c(c3)OCO4)C2=O)cc1)C(=O)O (configuration not stated)
  HCMV UL50-53 inh = -0.9	GIV-Gai inh = 104.3
65) CCc1ccc(N2C(=O)NC(=O)/C(=C\c3ccc(OC(C)C(=O)O)cc3)C2=O)cc1 (configuration not stated)
  HCMV UL50-53 inh = 78.5*	GIV-Gai inh = 99.8
66) Cc1cc(C)cc(N2C(=O)NC(=O)/C(=C\c3ccc(OC(C)C(=O)O)cc3)C2=O)c1 (configuration not stated)
  HCMV UL50-53 inh = 88.3*	GIV-Gai inh = 113.3
67) CCOc1ccc(N2C(=O)NC(=O)/C(=C\c3ccc(Br)cc3)C2=O)cc1
  HCMV UL50-53 inh = 1.2	GIV-Gai inh = 109.7
